Measured values reported in ChEMBL document CHEMBL1129144, “Stereoselective synthesis and biological activity of cis azetidinones as cholesterol absorption inhibitors” (1996).

Test system: Cricetinae gen. sp.
Assay: Compound was tested for cholesterol reduction in liver in the cholesterol-fed hamster model after oral administration.
Format: functional

## COc1ccc([C@@H]2[C@@H](CCCc3ccccc3)C(=O)N2c2ccc(OC)cc2)cc1
  ED50: 2.2 mg/kg
